These are literature values, as cited in patent US10357501B2, “Treating conditions associated with increased eotaxin with 25-hydroxyvitamin D3” (DSM IP ASSETS B.V., priority 2010, dated 2019).

For this series the following is noted: cited from earlier work.

Take Vitamin D: the safe upper level result (Hathcock et al. 2007, 10'000 IU) was “at least 250 μg/day”. The “chronic intake at which toxicity can occur” value (for several months, RDA 5-15 μg or 200-600 IU) was “more than 100 times the recommended daily allowance”.
